Assay [1] deals with T1, D(2) dopamine receptor (Homo sapiens, UniProt P14416). The assay is described as follows: Displacement of [3H]Spiperone from human dopamine D2 long receptor expressed in CHO cells. The assay is classed as cell-based. Background: In a radioligand displacement assay an active substance lowers the binding of a labelled ligand.
The target in assay [2] is T1, D(2) dopamine receptor. The experiment in a line: Displacement of [3H]Spiperone from human dopamine D2 short receptor expressed in CHO cells. Type of assay: cell-based.

Sequences of proteins named here, by UniProt entry; tags and fusion partners are left off.
UniProt P14416, whole entry: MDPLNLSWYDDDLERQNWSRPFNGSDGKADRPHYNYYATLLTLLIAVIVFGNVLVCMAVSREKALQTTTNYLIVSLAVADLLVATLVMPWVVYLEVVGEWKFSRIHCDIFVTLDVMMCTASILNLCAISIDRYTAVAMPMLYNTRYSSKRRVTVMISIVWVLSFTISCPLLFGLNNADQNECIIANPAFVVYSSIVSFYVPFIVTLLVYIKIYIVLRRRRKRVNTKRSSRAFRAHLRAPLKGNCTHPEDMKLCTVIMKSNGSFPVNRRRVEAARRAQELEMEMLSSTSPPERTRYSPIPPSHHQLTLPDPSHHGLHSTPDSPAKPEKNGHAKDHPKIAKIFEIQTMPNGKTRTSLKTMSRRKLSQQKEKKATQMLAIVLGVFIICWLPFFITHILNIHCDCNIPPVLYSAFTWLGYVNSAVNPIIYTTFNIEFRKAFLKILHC

This note sets out measurements from ChEMBL document CHEMBL1255217, “Bioisosteric replacement leading to biologically active [2.2]paracyclophanes with altered binding profiles for aminergic G-protein-coupled receptors” (J Med Chem, 2010).

The term Ki denotes the equilibrium dissociation constant of an inhibitor or competing ligand from its target. Low readings indicate higher affinity, high ones lower affinity.

Consider `Cc1ccc(C)c(C(=O)CCCN2CCC(O)(c3cc(C)ccc3C)CC2)c1`, for which the Ki in assay [1] was 0.055 µM; in assay [2], 0.046 µM.
